Tested on: HIV-1 NL4-3
Test: Murine SCID-hu-PBMC model of HIV-1 infection
Assay type: in vivo, CB.17 SCID/SCID mice
Conditions: one week post-infection; FIG. 5D

CC[C@H](C)C(=O)O[C@H]1C[C@@H](C)C=C2C=C[C@H](C)[C@H](CC[C@@H]3C[C@@H](O)CC(=O)O3)[C@H]21 [lovastatin]
Average CD4+/CD45+ ratio: 51%

From patent publication US20070082942A1, “Prevention of hiv-1 infection by inhibition of rho-mediated reorganization and/or content alteration of cell membrane raft” (priority 2003, published 2007)
